Assay results as given in ChEMBL document CHEMBL1126080, “Selective reversible and irreversible ligands for the kappa opioid receptor” (1992).

Amino acid sequences for entries named in this document (tags omitted). A change or cut given only in a name is not applied to a line headed by its entry.
UniProt P41144: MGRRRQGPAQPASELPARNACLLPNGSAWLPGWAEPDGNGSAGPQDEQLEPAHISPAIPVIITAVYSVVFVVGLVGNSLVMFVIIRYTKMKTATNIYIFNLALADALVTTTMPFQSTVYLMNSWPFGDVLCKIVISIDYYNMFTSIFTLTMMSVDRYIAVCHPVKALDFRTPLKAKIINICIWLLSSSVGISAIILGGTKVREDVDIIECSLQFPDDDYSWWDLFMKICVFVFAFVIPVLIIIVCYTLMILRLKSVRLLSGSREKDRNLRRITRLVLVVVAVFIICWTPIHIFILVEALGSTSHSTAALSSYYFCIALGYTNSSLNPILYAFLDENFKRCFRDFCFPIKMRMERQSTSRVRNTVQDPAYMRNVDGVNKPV
UniProt P97266, whole entry, looked up: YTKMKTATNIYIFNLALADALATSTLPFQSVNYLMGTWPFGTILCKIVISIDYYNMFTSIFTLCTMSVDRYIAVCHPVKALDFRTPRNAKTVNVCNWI

What was measured:
[1] = molecular target: Kappa-type opioid receptor (Cavia porcellus, UniProt P41144); experiment: Binding affinity against opioid receptor kappa from guinea pig brain membranes using [3H]ethylketocyclazocine as radioligand
[2] = molecular target: Mu-type opioid receptor (Cavia porcellus, UniProt P97266); experiment: Binding affinity against opioid receptor mu from guinea pig brain membranes using [3H]naloxone as radioligand

Compound | Ki [1] | Ki [2]
CN(C(=O)Cc1ccc(Cl)c(Cl)c1)[C@H]1CC(=O)CC[C@@H]1N1CCCC1 | 0.078 µM | 13 µM
CN(C(=O)Cc1ccc(Cl)c(Cl)c1)C1CCC2(CCCO2)CC1N1CCCC1 (centres undefined) | 0.0086 µM | 0.252 µM
CN(C(=O)Cc1ccc(Cl)c(Cl)c1)[C@H]1CCC2(C[C@@H]1N1CCCC1)OCCO2 | 0.0015 µM | 0.702 µM
C=C1C[C@@]2(CC[C@H](N3CCCC3)[C@@H](N(C)C(=O)Cc3ccc(Cl)c(Cl)c3)C2)OC1=O | 1.1 µM | 2.61 µM
C=C1C[C@]2(CC[C@H](N3CCCC3)[C@@H](N(C)C(=O)Cc3ccc(Cl)c(Cl)c3)C2)OC1=O | 0.109 µM | 3.15 µM
CN(C(=O)Cc1ccc(Cl)c(Cl)c1)C1CCCCC1N1CCCC1 (centres undefined) | 0.015 µM | 0.825 µM
CN(C(=O)Cc1ccc(Cl)c(Cl)c1)[C@H]1CC2(CC[C@@H]1N1CCCC1)OCCO2 | 0.094 µM | 5.21 µM
